Drawing on PubChem BioAssay AID570 (The Scripps Research Institute Molecular Screening Center, 2006), this text covers inhibition for 2 compounds.

SMILES strings stand for the structures. This is a selection; strong and weak results do not stand in their true shares. Some tests of the compounds listed are not included; inactive here does not mean inactive elsewhere. Active and inactive are the calls of the source.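 The calls were made as follows: active = inhibition above the mean of compound-free control plate wells plus 3 SD (cut at about 14% in these data); inactive = the rest.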

The term inhibition denotes the change of the read-out against control, counted positive when it falls.

The test deals with Collagenase 3 (Homo sapiens) (UniProt P45452). Description: inhibition of MMP13 collagenase activity – biochemical, FRET peptide cleavage, primary screen (AID 570).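 Also: 0% = DMSO wells and 100% = wells with reference MMP-13 inhibitor after basal subtraction.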 Particulars: MMP-13 fTHP FRET cleavage, Mca fluorescence; at 4 µM; hits give high values.
On to `O=C(OC1CN2CCC1CC2)C(CO)(c1ccccc1)c1ccccc1` (configuration not stated), for which the inhibition is inactive: -2.8%.
In the case of `CN(C)c1cccc(C(=O)NCC2(N(C)C)CCCCC2)c1` it was inactive: -10.2%.
